# Patent US7628987B2, “Vectors derived from antibodies for transferring substances into cells” (Institut Pasteur, priority 1997, dated 2009)
# Read-outs that look alike come from different tables or passages of the source.
# Key:
# HSV-1 TK^+ virus = format: cell-based, Herpes Virus Simplex type I; details: HSV1 TK^+
# HSV-1 TK^− virus = format: cell-based, Herpes Virus Simplex type I; details: HSV1 TK^−
smiles,measurement,setting,value
"Nc1nc2c(ncn2COCCO)c(=O)[nH]1 [ACYCLOVIR ®, Acyclovir, reference compound]","optical density, infected cells",HSV-1 TK^+ virus; 10^−3 M /HSV,0.626 ± 0.050
same,"optical density, infected cells",HSV-1 TK^+ virus; 10^−4 M /HSV,0.587 ± 0.149
same,"optical density, infected cells",HSV-1 TK^+ virus; 10^−5 M /HSV,0.223 ± 0.017
same,"optical density, infected cells",HSV-1 TK^+ virus; 10^−6 M /HSV,0.235 ± 0.032
same,"optical density, infected cells",HSV-1 TK^− virus; 10^−3 M /HSV,0.289 ± 0.055
same,"optical density, infected cells",HSV-1 TK^− virus; 10^−4 M /HSV,0.173 ± 0.001
same,"optical density, infected cells",HSV-1 TK^− virus; 10^−5 M /HSV,0.169 ± 0.019
same,"optical density, infected cells",HSV-1 TK^− virus; 10^−6 M /HSV,0.239 ± 0.111
